Results from patent US11174301B2 (Takeda Pharmaceutical Company Limited, priority 2017, dated 2021).

By UniProt entry, the sequences of proteins in these tests, tags left out. Residues count along the entry.
UniProt P43220, 24-463: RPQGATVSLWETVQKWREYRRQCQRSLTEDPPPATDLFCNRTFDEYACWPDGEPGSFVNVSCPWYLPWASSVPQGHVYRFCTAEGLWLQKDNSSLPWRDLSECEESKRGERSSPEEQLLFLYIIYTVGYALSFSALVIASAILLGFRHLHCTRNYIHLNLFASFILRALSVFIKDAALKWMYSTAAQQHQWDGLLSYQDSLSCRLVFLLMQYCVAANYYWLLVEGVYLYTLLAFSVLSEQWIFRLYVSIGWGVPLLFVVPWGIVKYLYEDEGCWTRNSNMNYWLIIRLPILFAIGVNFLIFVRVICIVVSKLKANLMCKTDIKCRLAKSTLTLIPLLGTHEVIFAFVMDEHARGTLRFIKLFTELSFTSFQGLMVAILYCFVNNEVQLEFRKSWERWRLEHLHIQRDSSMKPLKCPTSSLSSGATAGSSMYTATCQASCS

What was measured:
human GIPR [1] = molecular target: T1, human GIPR (Homo sapiens, UniProt P48546); assay: Agonist activity on human GIPR, CRE-luciferase reporter assay with increase in intracellular cAMP as indicator; type: cell-based; settings: hGIPR/CRE-LUC/CHO-K1 cells, 4 hours incubation, 10 nM GIP = 100%
T1 construct: expressed in transfected cells; host or cells: CHO-K1 (CRE-LUC/CHO-K1 reporter cell; hGIPR/CRE-LUC/CHO-K1 line)
T1 sequence (P48546 22-466): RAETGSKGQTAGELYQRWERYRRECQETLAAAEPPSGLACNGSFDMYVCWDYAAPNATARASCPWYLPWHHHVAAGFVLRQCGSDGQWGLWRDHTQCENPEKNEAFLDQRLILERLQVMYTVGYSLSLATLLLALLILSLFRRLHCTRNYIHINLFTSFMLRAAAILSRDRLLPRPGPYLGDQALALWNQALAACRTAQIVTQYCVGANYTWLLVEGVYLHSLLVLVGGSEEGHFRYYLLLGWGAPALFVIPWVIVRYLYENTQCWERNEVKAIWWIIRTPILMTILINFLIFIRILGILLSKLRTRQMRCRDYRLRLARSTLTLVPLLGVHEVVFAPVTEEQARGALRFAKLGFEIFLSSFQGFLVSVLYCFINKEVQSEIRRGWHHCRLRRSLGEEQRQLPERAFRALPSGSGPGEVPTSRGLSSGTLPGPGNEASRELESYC
Procedure: (2) Construction of Reporter Plasmid Expressing Cell
(4) Transfer of Human GIPR Gene to CRE-LUC/CHO-K1 Cell and Obtaining of Expressing Cell
Subsequently, the cell line inducing the luciferase expression, hGIPR/CRE-LUC/CHO-K1 cell, was selected from the obtained transformant by adding GIP.
(§1) Steady-Glo (Promega) was added in amounts of 30 μL and shaken under light shielding. 20 Minutes later, luciferase activity was measured using a plate reader Envision (PerkinElmer).

human GLP-1R = molecular target: T2, human GLP-1R (Homo sapiens, UniProt P43220); assay: Agonist activity on human GLP-1R, CRE-luciferase reporter assay with increase in intracellular cAMP as indicator; type: cell-based; settings: hGLP-1R/CRE-luc/CHO-K1 cells, 4 hours incubation, 10 nM GLP-1 = 100%
T2 construct: expressed in transfected cells; host or cells: CHO-K1 (hGLP-1R/CRE-luc/CHO-K1 line)
From the text: (3) Construction of Reporter Plasmid
(5) Construction of Expression Plasmid of Human GLP-1R Gene
(6) Transfer of Human GLP-1R Gene and Reporter Plasmid to CHO-K1 Cell and Obtaining of Expressing Cell
The Cre-luc (Zeo) obtained in (3) and the plasmid hGLP-1/pIRESneo3 obtained in (5) were transferred to the CHO-K1 cell to obtain a transformant. Subsequently, the cell line inducing the luciferase expression, hGLP-1R/CRE-luc/CHO-K1 cell, was selected from the obtained transformant by adding GLP-1.
as §1

human GIPR [2] = molecular target: T1, human GIPR; assay: Binding activity to human GIPR using [125I]-GIP (GIPR_VLP); settings: [125I]GIP 100 pM, room temperature 2 hours
Procedure: The GF/C glass fiber filter 96-well plate in which VLP was trapped was dried at 42° C. overnight. Thereafter, MicroScint-O (PerkinElmer 6013611) was added to the GF/C glass fiber filter 96-well plate sealed using a backseal and the plate was sealed using a topseal.

Substance | EC50 (human GIPR [1]) [nM] | EC50 (human GLP-1R) [nM] | IC50 (human GIPR [2]) [nM]
Me-Tyr-Aib-Glu-Gly-Thr-Iva-Ile-Ser-Asp-Tyr-Ser-Ile-Aib-Lys(Hda-GGGGG-)-Asp-Arg-Aib-Ala-Gln-Aib-Asn-Phe-Val-Asn-Trp-Iva-Leu-Ala-Gln-Arg-Pro-Ser-Ser-Gly-Ala-Pro-Pro-Pro-Ser-NH2 [Compound 459] | 0.0027 | > 1000 | 1.7
Me-Tyr-Aib-Glu-Gly-Thr-Iva-Ile-Ser-Asp-Tyr-Ser-Ile-Aib-Lys(Hepda-GGGGGG-)-Asp-Arg-Aib-His-Gln-Aib-Asn-Phe-Val-Asn-Trp-Iva-Leu-Ala-Gln-Arg-Pro-Ser-Ser-Gly-Ala-Pro-Pro-Pro-Ser-Arg-NH2 [Compound 514] | 0.024 | > 1000 | 12
Me-Tyr-Aib-Glu-Gly-Thr-Iva-Ile-Ser-Asp-Tyr-Ser-Ile-Aib-Lys(Oda-GGGGGG-)-Asp-Arg-Aib-Ala-Gln-Aib-Asn-Phe-Val-Asn-Trp-Iva-Leu-Ala-Gln-Arg-Pro-Ser-Ser-Gly-Ala-Pro-Pro-Pro-Ser-NH2 [Compound 439] | 0.016 | > 1000 | 3.1
Me-Tyr-Aib-Glu-Gly-Thr-Iva-Ile-Ser-Asp-Tyr-Ser-Ile-Aib-Lys(Hepda-GGGGGG-)-Asp-Arg-Aib-Ala-Gln-Aib-Asn-Phe-Val-Asn-Trp-Iva-Leu-Ala-Gln-Arg-Pro-Ser-Ser-Gly-Ala-Pro-Pro-Pro-Ser-NH2 [Compound 466] | 0.0061 | > 1000 | 1.8
Me-Tyr-Aib-Glu-Gly-Thr-Iva-Ile-Ser-Asp-Tyr-Ser-Ile-Aib-Lys(Hepda-GGGGGG-)-Asp-Arg-Aib-Ala-Gln-Aib-Asn-Phe-Val-Asn-Trp-Iva-Leu-Ala-Gln-Arg-Pro-Ser-Ser-Gly-Ala-Pro-Pro-Pro-Ser-Arg-NH2 [Compound 506] | 0.012 | > 1000 | 5.3
Methyl-Tyr-Aib-Glu-Gly-Thr-Phe-Ile-Ser-Asp-Tyr-Ser-Ile-Ala-Leu-Asp-Arg-Aib-His-Gln-Aib-Asn-Phe-Val-Asn-Trp-Iva-Leu-Ala-Gln-Arg-Pro-Ser-Ser-Gly-Ala-Pro-Pro-Pro-Ser-Arg-NH2 [Compound 117] | 0.0017 | > 1000 | 5.2
Me-Tyr-Aib-Glu-Gly-Thr-Iva-Ile-Ser-Asp-Tyr-Ser-Ile-Aib-Lys(Heda-GGGGG-)-Asp-Arg-Aib-His-Gln-Aib-Asn-Phe-Val-Asn-Trp-Iva-Leu-Ala-Gln-Arg-Pro-Ser-Ser-Gly-Ala-Pro-Pro-Pro-Ser-NH2 [Compound 507] | 0.0068 | > 1000 | 5.4
Me-Tyr-Aib-Glu-Gly-Thr-Iva-Ile-Ser-Asp-Tyr-Ser-Ile-Aib-Lys(Eda-GGGGGG-)-Asp-Arg-Aib-His-Gln-Aib-Asn-Phe-Val-Asn-Trp-Iva-Leu-Ala-Gln-Arg-Pro-Ser-Ser-Gly-Ala-Pro-Pro-Pro-Ser-NH2 [Compound 521] | 0.054 | > 1000 | 20
Me-Tyr-Aib-Glu-Gly-Thr-Iva-Ile-Ser-Asp-Tyr-Ser-Ile-Aib-Lys(Oda-GGGGGG-)-Asp-Arg-Aib-Ala-Gln-Aib-Asn-Phe-Val-Asn-Trp-Iva-Leu-Ala-Gln-Arg-Pro-Ser-Ser-Gly-Ala-Pro-Pro-Pro-Ser-Arg-NH2 [Compound 479] | 0.014 | > 1000 | 4.6
